From PubChem
In the library only some 0.46% were active in any assay of this set; here they are far more common.
HCMV NEC inh: disrupts HCMV UL50-UL53 complex binding. HTRF UL50-UL53 interaction, normalized percent inhibition. inhibition, % (test concentration not listed). 190,000 compounds, 0.15% hits; in the data active = inhibition above about 27%, passing the limit was not always enough
GIV Gai3 FP: inhibitors of GIV peptide binding to Galpha-i3, primary screen, biochemical, fluorescence polarization, FITC-GIV GBA peptide, rat Galphai3 | Guanine nucleotide-binding protein G(i) subunit alpha-3 (Rattus norvegicus), P08753 | 90 min; active compounds read low; scaled: aluminum fluoride 0%, vehicle 100% | 210,000 tested, 0.42% active | AID 1224905, 2016 | percent of control (FP), % (no concentration beside the values);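 active means replicate mean at 85% of control or lower, very high polarization wells dropped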;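 further: wells of about 15 µL received 100 nL stock; the first replicate is given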
The depositor's hits bear a star; . = no result.

By UniProt entry, the sequences of proteins in these tests, tags left out.
Guanine nucleotide-binding protein G(i) subunit alpha-3 (Rattus norvegicus), P08753, UniProt P08753, whole entry, looked up: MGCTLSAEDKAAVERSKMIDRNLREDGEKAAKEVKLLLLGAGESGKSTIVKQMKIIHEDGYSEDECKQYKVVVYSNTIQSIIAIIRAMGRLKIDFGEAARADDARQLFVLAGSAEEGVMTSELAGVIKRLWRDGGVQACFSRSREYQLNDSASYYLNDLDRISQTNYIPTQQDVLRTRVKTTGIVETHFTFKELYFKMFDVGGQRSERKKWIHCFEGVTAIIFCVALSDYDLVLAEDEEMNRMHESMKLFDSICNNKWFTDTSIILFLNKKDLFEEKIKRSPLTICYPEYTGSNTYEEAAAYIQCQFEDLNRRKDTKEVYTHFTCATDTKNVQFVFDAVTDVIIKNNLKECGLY

Start of the data: the first two entries as a preview:
Each structure is followed by: HCMV NEC inh, GIV Gai3 FP
> CN(C)c1cc(Nc2ccc(Cl)cc2)c2c3c(onc13)-c1ccccc1C2=O
  -22.9, 111.1
> CC1CCN(CCNc2cc(N(C)C)c3noc4c3c2C(=O)c2ccccc2-4)CC1
  -134.6, -4.4*

Results, from the first entry:
Each structure is followed by: HCMV NEC inh, GIV Gai3 FP
> CN(C)c1cc(Nc2ccc(Cl)cc2)c2c3c(onc13)-c1ccccc1C2=O
  -22.9, 111.1
> CC1CCN(CCNc2cc(N(C)C)c3noc4c3c2C(=O)c2ccccc2-4)CC1
  -134.6, -4.4*
> Cc1nc2sccn2c(=O)c1S(=O)(=O)NCCC1=CCCCC1
  -30.2, 99.8
> O=c1oc2cc(O)ccc2cc1-c1cc(F)cc(F)c1
  -35.6, 115.2
> N#Cc1cc2ccc(O)cc2oc1=N
  -28.0, -3.8*
> CCCSc1nnc(-c2cccc(S(=O)(=O)N(C)C)c2)n1-c1cccc(OC)c1
  -23.4, .
> Cc1cccn2c(=O)c(/C=C3\SC(=S)N(Cc4ccccc4)C3=O)c(NCc3ccco3)nc12
  ., 265.3
> C=CCNc1nc2c(C)cccn2c(=O)c1/C=C1\SC(=S)NC1=O
  ., -41.9*
> O=C1CC(c2ccccc2Cl)c2c(-c3ccccc3)nn(-c3ccccc3)c2N1 (stereo not given)
  -20.7, 102.8
> CCOC(=O)/C(C#N)=C/c1ccc(N2CCCCC2)o1
  -148.1, -73.7*
> N#C/C(=C\c1ccc(N2CCCCC2)o1)C(N)=O
  -216.8, 196.5
> Nc1c(C(=O)Nc2ccc(F)c(F)c2)sc2nc(-c3ccncc3)ccc12
  2.2, 124.1
> Cc1ccc(NC(=O)c2sc3nc(-c4ccncc4)ccc3c2N)cc1
  2.2, -53.5*
> Cn1cc(S(=O)(=O)N2CCCC2)cc1C(=O)N1CCN(c2ccccn2)CC1
  36.8, 106.6
> CCc1nnc(NC(=O)CSc2nnc(-c3cc4ccccc4o3)n2CC)s1
  ., 103.1
> Cc1cc2nc(CN3CCCc4ccccc43)cc(=O)n2o1
  -59.5, 74.9*
> Cc1cc2nc(COc3ccccc3)cc(=O)n2o1
  -4.7, 99.1
> Cc1ccc(-c2nc3ncccn3c2NC(=O)Cc2ccccc2)cc1
  ., 105.4
> CCCN1C(=O)/C(=C/c2ccc(CC)cc2)NC1=S
  ., 103.8
> CCCN1C(=O)/C(=C/c2cc(Br)c(O)c(OCC)c2)NC1=S
  -65.0, -83.2*
> CCOC(=O)COc1cc(Br)c(/C=c2\sc3nc4ccccc4n3c2=O)cc1OC
  -11.9, 139.6
> O=C(O)C(Cc1ccccc1)N1C(=O)/C(=C/C=C/c2ccco2)SC1=S (stereo not given)
  70.5*, 121.1
> O=C1S/C(=C\C=C\c2ccco2)C(=O)N1c1ccccc1
  -23.1, 115.5
> CC(=O)OC1=CSc2ccc(Br)c3cccc1c23
  ., 106.5
> N#Cc1ccc(COC(=O)CCC(=O)c2ccc(F)cc2)cc1
  -11.4, .
> Cc1ccc2c3c(c(N)c(=O)[nH]c13)-c1ccccc1C2=O
  ., 75.5*
> CCOC(=O)c1c2c3c(cccc3[nH]c1=O)C(=O)c1ccccc1-2
  -53.1, .
> Cc1noc(C)c1C(=O)Sc1ccc(C(F)(F)F)cn1
  3.2, 109.9
> O=C1c2cccc3c(N4CCOCC4)ccc(c23)C(=O)N1c1ccccc1
  -90.6, 94.0
> Cc1n[nH]c(C)c1N1C(=O)c2cccc3c(N4CCCCC4)ccc(c23)C1=O
  -115.7, -6.8*

Four entries picked at random from those above, as already listed:
Each structure is followed by: HCMV NEC inh, GIV Gai3 FP
> O=C1S/C(=C\C=C\c2ccco2)C(=O)N1c1ccccc1
  -23.1, 115.5
> Cc1cc2nc(COc3ccccc3)cc(=O)n2o1
  -4.7, 99.1
> Cc1cc2nc(CN3CCCc4ccccc43)cc(=O)n2o1
  -59.5, 74.9*
> CC(=O)OC1=CSc2ccc(Br)c3cccc1c23
  ., 106.5

(more compounds)
Each structure is followed by: HCMV NEC inh, GIV Gai3 FP
> COc1ccccc1C(=O)On1c(C)nc2ccccc2c1=O
  31.0*, 97.9
> COc1cc(OC)cc(-c2nc3ccccc3c(=O)n2OC(=O)c2cc(Cl)ccc2OC)c1
  11.4, 103.0
> N/C(CCn1nnc2ccccc21)=N\O
  -21.1, 97.7
> COc1ccc(Br)cc1/C=C1\N=C(c2cc(OC)c(OC)c(OC)c2)OC1=O
  ., 107.9
> COc1ccc(Br)cc1/C=C1/N=C(c2ccc(OC)c(OC)c2)OC1=O
  ., -11.5*
> COc1cc(OC)c(OC)cc1/C=C1\N=C(c2cncc(Br)c2)OC1=O
  ., -8.4*
> COc1cc(OC)c(OC)cc1/C=C1\N=C(c2cccc(Br)c2)OC1=O
  ., 171.7
> CCCCCCCCCOCC1OC2OC(C)(C)OC2C2OC(C)(C)OC12 (stereo not given)
  ., 102.3
> CCc1ccccc1N1CC(c2nnc(NC(=O)c3c(-c4ccccc4)noc3C)s2)CC1=O (stereo not given)
  -8.6, 102.7
> CCOC(=O)c1nc2cc3n(c(C)c-2c1C)C(C)C(CCC(=O)O)=C3C (stereo not given)
  ., 107.9
> CCc1onc(C)c1C1CCCN1Cc1cn[nH]c1-c1ccc(OC)c(OC)c1 (stereo not given)
  ., 114.3
> COc1ccc(C2CC(=O)C3=C(C2)NC(C)=C(C(=O)OCC(C)C)C3c2cc(OC)c(OC)c(OC)c2)cc1 (stereo not given)
  -34.2, 105.3
> Cc1nc2ccc(-c3ncnc4sccc34)cc2c(=O)[nH]1
  -18.6, .
> CCN1/C(=C/C=C2\SC(=S)N(C)C2=O)Oc2ccccc21
  -50.4, 161.8
> CCCN1C(=O)/C(=C/C=C2/Oc3ccccc3N2CCC(=O)O)N(CCO)C1=S
  ., -18.2*
> CCCOc1ccc(C2CC(=O)Nc3c2c(C)nn3-c2ccc3nncn3n2)cc1 (stereo not given)
  -30.7, 98.7
> CN(C)C(=O)c1ccc2c(c1)N(CC(=O)N1CCOCC1)C(=O)CO2
  -8.6, 99.4
> O=C(CN1C(=O)S/C(=C\c2ccc(N3CCOCC3)o2)C1=O)Nc1ccccc1F
  -26.3, -19.3*
> O=C1S/C(=C\c2ccc(N3CCOCC3)o2)C(=O)N1Cc1ccc(F)cc1
  -32.5, 258.5
> Cc1ccccc1Nc1cc(N2CCCCC2)c2noc3c2c1C(=O)c1ccccc1-3
  ., 107.0
> O=C1c2ccccc2-c2onc3c(Br)cc(NC4CCCCC4)c1c23
  -20.8, 85.8
> CC(C)Nc1cc(Br)c2noc3c2c1C(=O)c1ccccc1-3
  ., -54.6*
> O=C1c2ccccc2-c2onc3c(N4CCN(C5CCCCC5)CC4)cc(NCCO)c1c23
  -135.6, 100.0
> CC1CCN(c2cc(NC(C)C)c3c4c(onc24)-c2ccccc2C3=O)CC1
  -117.3, -4.4*
> CN(C)CCCNc1cc(N2CCN(C3CCCCC3)CC2)c2noc3c2c1C(=O)c1ccccc1-3
  -150.9, -7.2*
> CC(C)Nc1cc(N2CCN(Cc3ccc4c(c3)OCO4)CC2)c2noc3c2c1C(=O)c1ccccc1-3
  -64.0, -31.4*
> Cc1ccccc1Nc1cc(N2CCCC2)c2noc3c2c1C(=O)c1ccccc1-3
  ., 109.4
> O=C1COc2ccc(C(=O)Nc3cccc(F)c3)cc2N1
  -11.4, 98.3
> COc1ccc(Nc2nc(NCCC3=CCCCC3)nc(N3CCOCC3)n2)cc1
  ., 100.8
> CCOc1cc(C2NC(=O)NC(C)=C2C(=O)OCc2ccc(OC)cc2)ccc1O (stereo not given)
  -25.5, 103.6

New compounds follow.
Each structure is followed by: HCMV NEC inh, GIV Gai3 FP
> Cc1cc(Br)ccc1N1C(=O)/C(=C/c2ccc(Cl)cc2)C=C1c1ccccc1
  ., 107.2
> O=C(Nc1ccc(Cl)cc1)C1Nc2cc(F)ccc2S(=O)(=O)N1 (stereo not given)
  -12.2, 102.1
> CCNc1cc(N2CCOCC2)c2noc3c2c1C(=O)c1ccccc1-3
  -101.5, -31.4*
> CC(C)CNc1cc(N2CCC(C)CC2)c2noc3c2c1C(=O)c1ccccc1-3
  -53.1, 198.3
> CC1CCN(c2cc(NCc3ccccc3)c3c4c(onc24)-c2ccccc2C3=O)CC1
  -71.2, -4.4*
> CCNc1cc(N2CCC3(CC2)OCCO3)c2noc3c2c1C(=O)c1ccccc1-3
  -121.0, 240.2
> O[N+]1=CC=CCC1=S.On1ccccc1=S.[Zn]
  93.1*, .
> Cc1ccc2nc(-c3ccc(N4C(=O)CC(N5CCC(C)CC5)C4=O)cc3)sc2c1 (stereo not given)
  -14.9, 97.1
> CC1(C)Oc2ccc3ccc(=O)oc3c2C/C1=N/O
  -24.9, 100.9
> CCOc1ccc(C(=O)c2cccs2)cc1
  -9.1, 98.6
> CCOc1ccc(C(=O)c2[nH]c(=O)c3ccccc3c2O)cc1
  61.2*, 88.6
> Cc1[nH]n(-c2ccccc2)c(=O)c1C1=c2ccccc2=NC1=O
  67.7*, .
